This note sets out measurements from article PMC12440207, “Positive allosteric modulation of emodepside sensitive Brugia malayi SLO-1F and Onchocerca volvulus SLO-1A potassium channels by GoSlo-SR-5-69” (PLOS Pathogens, 2025).

By UniProt entry, the sequences of proteins in these tests, tags left out.
UniProt A0A0J9Y9H3, entry or part of it: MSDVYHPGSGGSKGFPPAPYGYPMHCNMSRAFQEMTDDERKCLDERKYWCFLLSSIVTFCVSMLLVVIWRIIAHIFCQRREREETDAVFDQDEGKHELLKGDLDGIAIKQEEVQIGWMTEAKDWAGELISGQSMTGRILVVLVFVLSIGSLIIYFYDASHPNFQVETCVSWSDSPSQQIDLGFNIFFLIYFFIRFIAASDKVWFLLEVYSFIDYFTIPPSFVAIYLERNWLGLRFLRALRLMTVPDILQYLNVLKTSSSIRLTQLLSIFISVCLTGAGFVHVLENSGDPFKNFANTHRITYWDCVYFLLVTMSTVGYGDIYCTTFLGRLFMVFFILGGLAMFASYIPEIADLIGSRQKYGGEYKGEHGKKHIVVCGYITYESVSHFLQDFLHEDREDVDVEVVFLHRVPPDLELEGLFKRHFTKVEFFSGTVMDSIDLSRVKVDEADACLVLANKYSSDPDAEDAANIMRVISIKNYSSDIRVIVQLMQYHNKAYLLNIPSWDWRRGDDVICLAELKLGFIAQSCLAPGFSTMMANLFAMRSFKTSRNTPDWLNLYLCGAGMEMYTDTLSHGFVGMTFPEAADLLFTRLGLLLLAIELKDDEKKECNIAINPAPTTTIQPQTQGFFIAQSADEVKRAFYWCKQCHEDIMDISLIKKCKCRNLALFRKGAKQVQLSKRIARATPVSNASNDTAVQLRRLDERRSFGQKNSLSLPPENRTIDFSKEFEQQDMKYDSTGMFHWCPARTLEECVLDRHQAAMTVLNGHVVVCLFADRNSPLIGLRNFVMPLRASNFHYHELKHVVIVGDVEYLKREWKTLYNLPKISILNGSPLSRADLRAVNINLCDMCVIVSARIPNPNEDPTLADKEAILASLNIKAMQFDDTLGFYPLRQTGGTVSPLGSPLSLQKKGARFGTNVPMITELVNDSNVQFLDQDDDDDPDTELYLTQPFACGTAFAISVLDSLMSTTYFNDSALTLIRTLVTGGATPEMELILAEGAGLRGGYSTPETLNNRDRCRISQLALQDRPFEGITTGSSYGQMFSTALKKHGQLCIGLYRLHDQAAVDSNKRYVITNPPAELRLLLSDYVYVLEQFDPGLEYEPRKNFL
UniProt A0A2K6W0E9, entry or part of it: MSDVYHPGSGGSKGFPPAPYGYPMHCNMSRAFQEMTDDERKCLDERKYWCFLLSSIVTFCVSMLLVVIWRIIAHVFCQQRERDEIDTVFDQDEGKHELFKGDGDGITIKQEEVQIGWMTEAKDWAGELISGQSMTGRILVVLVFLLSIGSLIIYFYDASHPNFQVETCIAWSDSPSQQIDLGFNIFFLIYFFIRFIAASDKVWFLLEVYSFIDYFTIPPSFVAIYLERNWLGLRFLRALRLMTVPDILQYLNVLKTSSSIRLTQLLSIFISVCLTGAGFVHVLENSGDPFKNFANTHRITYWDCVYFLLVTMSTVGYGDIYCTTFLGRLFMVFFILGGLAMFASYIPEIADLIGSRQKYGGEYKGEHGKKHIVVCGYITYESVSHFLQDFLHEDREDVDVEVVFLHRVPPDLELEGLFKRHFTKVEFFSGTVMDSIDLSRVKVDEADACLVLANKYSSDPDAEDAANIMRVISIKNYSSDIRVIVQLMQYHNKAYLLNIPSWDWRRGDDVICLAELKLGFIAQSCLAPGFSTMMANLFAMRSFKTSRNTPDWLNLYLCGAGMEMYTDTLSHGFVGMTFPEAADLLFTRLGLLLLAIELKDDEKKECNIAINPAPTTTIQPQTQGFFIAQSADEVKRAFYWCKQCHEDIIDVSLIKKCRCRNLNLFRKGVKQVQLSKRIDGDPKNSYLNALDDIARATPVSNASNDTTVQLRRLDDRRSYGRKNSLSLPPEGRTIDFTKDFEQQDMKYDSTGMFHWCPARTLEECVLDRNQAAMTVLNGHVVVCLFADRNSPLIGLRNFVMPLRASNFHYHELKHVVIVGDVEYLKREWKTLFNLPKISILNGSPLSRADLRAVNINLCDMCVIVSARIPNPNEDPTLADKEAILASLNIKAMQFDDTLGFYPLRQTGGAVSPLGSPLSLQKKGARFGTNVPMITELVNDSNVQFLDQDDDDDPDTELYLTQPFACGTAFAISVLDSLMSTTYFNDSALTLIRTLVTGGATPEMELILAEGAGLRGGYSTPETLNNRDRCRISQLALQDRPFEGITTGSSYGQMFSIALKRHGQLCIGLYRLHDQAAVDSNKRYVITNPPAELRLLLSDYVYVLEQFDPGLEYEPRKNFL

Like-named read-outs stand apart in the source and are kept apart here.

Data set [1] deals with Bma-SLO-1F (Brugia malayi, UniProt A0A0J9Y9H3). Nature of the data set: Two-electrode voltage clamp of Xenopus oocytes expressing Bma-SLO-1F. Format: cell-based. The following applies: read-out: EC50 of emodepside; emodepside alone, cumulative 0.1-10 µM, 5 min per concentration, holding potential +20 mV, n = 10. On the procedure: (§1) Defolliculated Xenopus laevis oocytes were purchased from Ecocyte Bioscience (Austin, TX, USA) and Xenopus 1 Corp (Dexter, MI, USA). Heterologous expression of the Bma-SLO-1F receptor was achieved by injecting 15 ng of cRNA in a total volume of 50 nL in nuclease-free water. Each oocyte was microinjected into the cytoplasm of the animal pole region using a Drummond Nanoject II microinjector (Drummond Scientific, Broomall, PA, USA). After injection, oocytes were incubated at 17°C in a sterile 96-well culture plate containing 300 μl of incubation solution (100 mM NaCl, 2 mM KCl, 1.8 mM CaCl2.2H2O, 1 mM MgCl2.6H2O, 5 mM HEPES, 2.5 mM Na pyruvate, 100 U/mL penicillin and 100 μg/mL streptomycin, pH 7.5) in each well. Incubation solution was changed daily during the period of incubation. The same procedure was also conducted for the Ovo-SLO-1A receptor. Experiments were performed on oocytes within 5 – 6 days post injection. […]
(§2) Emodepside is known to be lipophilic, thus making it difficult to wash off completely from the Xenopus laevis oocyte preparation after application. […] For our recordings, the times for drug applications were selected to allow the currents recorded to reach a stable plateau. […]

Data set [2] has as its target Ovo-SLO-1A (Onchocerca volvulus, UniProt A0A2K6W0E9). The data set can be described thus: Two-electrode voltage clamp of Xenopus oocytes expressing Ovo-SLO-1A. Type of data set: cell-based. The conditions noted are these: read-out: EC50 of emodepside. How it is done: as §1, §2
Data set [3] is described as follows: Solubility limit in oocyte recording solution. Format: physicochemical. The following applies: DMSO not exceeding 0.1%. How it is done:
Emodepside is known to be lipophilic, thus making it difficult to wash off completely from the Xenopus laevis oocyte preparation after application. […] To estimate EC50 values, we utilized a cumulative concentration-response protocol (no wash steps between drug application) and a maximum concentration of 10 µM emodepside. For our recordings, the times for drug applications were selected to allow the currents recorded to reach a stable plateau. At the beginning of experiments the Xenopus oocytes were perfused with drug free recording solution for 1 min, to obtain stable initial resting currents. For our drug applications we used successive applications of increasing concentrations of emodepside (0.1 – 10 µM) for 5 mins per concentration. Washing of the Xenopus oocytes then followed for 3 mins.

emodepside: the EC50 in data set [1] was found to be 1.4 ± 0.2 µM; in data set [2] (control, absence of GoSlo-SR-5-69, modulation experiment, n = 6) it was 0.5 ± 0.09 µM; in data set [2] (emodepside alone, cumulative 0.1-10 µM, 5 min per concentration, holding potential +20 mV, n = 10), 0.4 ± 0.05 µM. Besides, in data set [3], the “concentration above which precipitation and a limit of solubility were seen” value is recorded as “exceeding 10 µM”.
